Assay type: in vivo
Conditions: 150 mg/kg

## O=C(NOC[C@H](O)CO)c1ccc(F)c(F)c1Nc1ccc(I)cc1F [PD-0325901]
  acute toxicity / survival: recovered over 24 hours
